For eight compounds, IC50 results are on record in patent US12410179B2, “Modulators of TNF alpha activity and uses thereof” (RayThera, Inc., priority 2023, dated 2025).

Chains of the proteins cited; added tags and fusions are not shown. Residues count along the entry.
UniProt P01375, 77-233 limits assumed: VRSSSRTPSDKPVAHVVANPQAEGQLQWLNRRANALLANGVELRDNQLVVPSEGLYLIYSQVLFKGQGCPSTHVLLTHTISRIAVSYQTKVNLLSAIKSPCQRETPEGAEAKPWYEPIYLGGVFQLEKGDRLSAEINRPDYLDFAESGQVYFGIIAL

This assay addresses TNFα (Homo sapiens, UniProt P01375). The assay can be described thus: HEK-Blue hTNFα reporter assay. The note with it: read-out: IC50 Range; HEK-Blue hTNFα reporter cells, SEAP readout. On the technique in general: Reporter assays use an easily measured gene product as a stand-in for the process of interest.

As to `[2H]C([2H])([2H])N1C(=O)c2ccc(F)c(OC(F)F)c2[C@H]2C[C@@H]1c1nn3cc(F)c(-c4cnc([C@]5(N)C[C@@](C)(O)C5)nc4)nc3c12`, the IC50 (in general, the point on the concentration scale where inhibition reaches its midpoint) is less than 25 nM.

On to `[2H]C([2H])([2H])N1C(=O)c2cccc(OC(F)F)c2[C@H]2C[C@@H]1c1nn3cnc(-c4cnc([C@]5(N)C[C@@](C)(O)C5)nc4)cc3c12`, for which the IC50 was less than 25 nM.

As to `CN1C(=O)c2cccc(OC(F)F)c2[C@H]2C[C@@H]1c1nn3cnc(-c4cnc(C5(O)CC(F)(F)C5)nc4)cc3c12`, the IC50 is less than 25 nM.

With `[2H]C([2H])([2H])N1C(=O)c2cccc(OC(F)F)c2[C@H]2C[C@@H]1c1nn3cc(F)c(-c4cnc(C5(N)CC5)nc4)cc3c12`, the IC50 was less than 25 nM.

On to `NC1(c2ncc(-c3cc4c5c(nn4cc3F)[C@H]3C[C@@H]5c4c(OC(F)F)cccc4C(=O)N3)cn2)CCC1`, for which the IC50 was less than 25 nM. As for `CN1C(=O)c2ccnc(OC(F)F)c2[C@H]2C[C@@H]1c1nn3ccc(-c4cnc(C5(O)CC(F)(F)C5)nc4)cc3c12`, the figure is less than 25 nM.

On to `CN1C(=O)c2cccc(OC(F)F)c2[C@H]2C[C@@H]1c1nn3ccc(-c4cnc(N5CC6(COC6)C5)nc4)cc3c12`, for which the IC50 was less than 25 nM. The figure for `C[C@]1(O)C[C@](N)(c2ncc(-c3cc4c5c(nn4cc3F)[C@H]3C[C@@H]5c4c(OC(F)F)cccc4C(=O)N3)cc2F)C1` is less than 25 nM.
